Measurements as given in PubChem BioAssay AID1007 (NMMLSC, 2008).
This is a selection; strong and weak results do not stand in their true shares. Calls of active or inactive are those of the source. Rule as the data show it: active = inhibition above about 40%.

Protein sequences, listed by entry. Tags and fused reporters are not part of them.
UniProt Q07817, whole entry, looked up: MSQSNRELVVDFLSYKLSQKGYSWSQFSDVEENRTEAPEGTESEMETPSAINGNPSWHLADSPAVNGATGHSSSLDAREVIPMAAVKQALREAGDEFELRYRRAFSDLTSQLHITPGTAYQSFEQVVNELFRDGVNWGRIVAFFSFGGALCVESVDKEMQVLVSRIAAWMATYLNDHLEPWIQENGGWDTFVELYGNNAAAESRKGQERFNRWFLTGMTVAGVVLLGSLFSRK

Molecular target: Bcl-2-like protein 1 (Homo sapiens) (UniProt Q07817)
Experiment: inhibitors of Bim-Bcl-XL binding, primary screen, biochemical, multiplexed, bead flow cytometry, human Bcl-XL (AID 1007)
Settings: Bim peptide-Bcl-XL binding, fluorescence, at 10 µM, stronger effect = higher value

SMILES	inhibition
COc1ccc(C2=NCC(CBr)S2)cc1 (centres undefined)	inactive: -1%
O=[N+]([O-])c1cccc2n[nH]nc12	inactive: -8%
CC(=O)N1C2C3N(C(C)=O)C1C1N(C(C)=O)C(C(N1C(C)=O)N3C(C)=O)N2C(C)=O	inactive: 0%
Cc1ccc(NP(=O)(Oc2ccccc2)Oc2ccccc2)nc1	inactive: 0%
CCc1nc2c(n1)c1c(non1O)c1c2no[n+]1[O-]	inactive: 31%
O=[N+]([O-])c1cc([N+](=O)[O-])c(CCNc2ccccc2)c([N+](=O)[O-])c1	inactive: 0%
CCN(/C(=N/P(=O)(N1CCOCC1)N1CCOCC1)N1CCOCC1)c1ccc(OC)cc1	inactive: -1%
CC(C)=N/N=C(\N)N[N+](=O)[O-]	inactive: -7%
CN(C)C(=O)OCCc1n(C)cc[n+]1C	inactive: -10%
CC1CCN(C(=O)Oc2c(Cl)cc(Cl)c3cccnc23)CC1	inactive: -2%
O=[N+]([O-])c1ncn(CCn2ncnc2[N+](=O)[O-])n1	inactive: -3%
CCOP(=O)(Nc1ccccc1)OCC	inactive: 0%
Cc1cc(SC(NC(=O)c2ccc(F)cc2)C(Cl)(Cl)Cl)ncn1 (centres undefined)	inactive: -15%
CCN(N=Nc1nonc1N)c1nonc1N	inactive: -6%
NC(=O)c1cc([N+](=O)[O-])cc([N+](=O)[O-])c1N	inactive: -4%
Cc1ccc(N/C(=N/P(=O)(N2CCOCC2)N2CCOCC2)N2CCOCC2)cc1	inactive: -1%
COc1ccccc1OP(=O)(Nc1ccc(C)cn1)Oc1ccccc1OC	inactive: 3%
Clc1ccc(Cl)c(NC2=NCC(CBr)S2)c1 (centres undefined)	inactive: -1%
CN1CCCC(OC(=O)C(c2ccccc2)c2ccccc2)C1 (centres undefined)	inactive: -1%
CC(C)CC(=O)NC(Sc1ccc(Cl)cc1)C(Cl)(Cl)Cl (centres undefined)	inactive: -5%
Oc1ccccc1CNc1ccccn1	inactive: -11%
Cc1c2non([O-])c-2c(C)[n+](=O)[n+]1[O-]	inactive: 2%
O=C(NC(Sc1ccncn1)C(Cl)(Cl)Cl)c1ccccc1 (centres undefined)	inactive: -4%
O=P1(Nc2nc3ccc(Cl)cc3s2)COc2ccccc2O1 (centres undefined)	inactive: -3%
CCOc1ccc(C2=NCC(CBr)S2)cc1 (centres undefined)	inactive: -2%
CC(C)(C)C(=O)NC(Sc1ccccc1)C(Cl)(Cl)Cl (centres undefined)	inactive: -1%
CC(=O)Nc1ccc(Oc2c([N+](=O)[O-])cc([N+](=O)[O-])cc2[N+](=O)[O-])cc1	inactive: 2%
CCNC(=S)/N=C(\N)N[N+](=O)[O-]	inactive: 0%
O=C(NC1CCS(=O)(=O)C1)NP(=S)(Oc1ccccc1)Oc1ccccc1 (centres undefined)	inactive: -5%
